# Biological target: high affinity rolipram binding form of PDE IV (HPDE IV)
# Experiment: [3H]-rolipram binding assay (competition for high affinity site)
# Set-up: species or system rat
# Settings: competition with 1 nM [3H]-rolipram, 1 hour at 30° C.
# Method: Inhibition of PDE IV catalytic activity can thus be used as an index of the potency of compounds at LPDE IV.
# The assay was run for 1 hour at 30° C. The reaction was terminated and bound ligand was separated from free ligand using a Brandel cell harvester. Competition for the high affinity binding site was assessed under conditions that were identical to those used for measuring low affinity PDE activity, expect that [^3H]-cAMP was not present.
compound,measurement,value
"COc1ccc(Cc2nccc3cc(OC)c(OC)cc23)cc1OC [Papaverine, 1-[(3,4-dimethoxyphenyl)methyl]-6,7-dimethoxyisoquinoline, reference compound]",IC50,10 µM
